{"sequences": {"note": "Sequences of proteins named here, by UniProt entry; tags and fusion partners are left off.", "UniProt O35433, whole entry": "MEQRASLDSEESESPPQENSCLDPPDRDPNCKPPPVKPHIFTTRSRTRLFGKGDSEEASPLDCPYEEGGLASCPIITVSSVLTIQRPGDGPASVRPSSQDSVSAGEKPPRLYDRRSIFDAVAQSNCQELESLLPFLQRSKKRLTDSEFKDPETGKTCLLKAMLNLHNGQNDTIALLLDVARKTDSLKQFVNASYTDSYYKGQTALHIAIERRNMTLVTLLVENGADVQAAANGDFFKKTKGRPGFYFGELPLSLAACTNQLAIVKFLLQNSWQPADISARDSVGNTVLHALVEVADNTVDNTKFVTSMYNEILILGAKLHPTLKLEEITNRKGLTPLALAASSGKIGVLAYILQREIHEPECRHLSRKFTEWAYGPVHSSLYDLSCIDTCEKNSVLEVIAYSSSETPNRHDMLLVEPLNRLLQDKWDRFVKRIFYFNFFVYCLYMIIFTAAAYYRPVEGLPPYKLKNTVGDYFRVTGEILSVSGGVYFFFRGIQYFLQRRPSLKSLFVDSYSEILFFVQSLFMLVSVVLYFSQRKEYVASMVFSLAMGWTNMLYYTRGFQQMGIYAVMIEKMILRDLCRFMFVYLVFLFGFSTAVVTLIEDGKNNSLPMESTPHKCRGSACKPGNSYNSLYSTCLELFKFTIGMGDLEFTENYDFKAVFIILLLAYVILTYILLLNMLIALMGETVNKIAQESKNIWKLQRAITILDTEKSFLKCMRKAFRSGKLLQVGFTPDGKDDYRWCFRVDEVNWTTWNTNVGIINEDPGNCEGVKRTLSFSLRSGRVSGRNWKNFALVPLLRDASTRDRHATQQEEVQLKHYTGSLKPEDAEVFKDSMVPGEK"}, "source": "patent US9120756B2", "about": "“Substituted phenylureas and phenylamides as vanilloid receptor ligands” (Gruenenthal GmbH, priority 2009, dated 2015)", "biological_target": "rat-species vanilloid receptor 1 (VR1/TRPV1) (Rattus norvegicus (Rat), UniProt O35433)", "test": "FLIPR Ca2+ influx assay on rat dorsal root ganglia cells, capsaicin stimulus (method I)", "assay_type": "cell-based", "details": "capsaicin (Cap)", "protocol": "The agonistic or antagonistic effect of the substances to be tested on the rat-species vanilloid receptor 1 (VR1/TRPV1) can be determined using the following assay. In this assay, the influx of Ca^2+ through the receptor channel is quantified with the aid of a Ca^2+-sensitive dye (type Fluo-4, Molecular Probes Europe BV, Leiden, the Netherlands) in a fluorescent imaging plate reader (FLIPR, Molecular Devices, Sunnyvale, USA).\nComplete medium: 50 ml HAMS F12 nutrient mixture (Gibco Invitrogen GmbH, Karlsruhe, Germany) with\n10% by volume of FCS (foetal calf serum, Gibco Invitrogen GmbH, Karlsruhe, Germany, heat-inactivated);\n2 mM L-glutamine (Sigma, Munich, Germany);\n1% by weight of AA solution (antibiotic/antimyotic solution, PAA, Pasching, Austria) and 25 ng/ml NGF medium (2.5 S, Gibco Invitrogen GmbH, Karlsruhe, Germany) […]\nThe vertebral column is removed from decapitated rats and placed immediately into cold HBSS buffer (Hank's buffered saline solution, Gibco Invitrogen GmbH, Karlsruhe, Germany), i.e. buffer located in an ice bath, mixed with 1% by volume (percent by volume) of an AA solution (antibiotic/antimyotic solution, PAA, Pasching, Austria). […] The resulting pellet is respectively taken up in 250 μL of complete medium and the cell count is determined. […]"}
{"molecule": "CC(C(=O)NCc1cc(C(C)(C)C)nn1-c1cccc(Cl)c1)c1ccc(NS(C)(=O)=O)c(F)c1", "note": "(centres unmarked) [Example 16, N-((3-tert-butyl-1-(3-chlorophenyl)-1H-pyrazol-5-yl)methyl)-2-(3-fluoro-4-(methylsulphonamido)phenyl)propanamide]", "values": [{"measurement": "Ki", "result": 0.2, "unit": "nM"}]}
{"molecule": "C[C@H](C(=O)NCc1cc(C(C)(C)C)nn1-c1cccc(Cl)c1)c1ccc(NS(C)(=O)=O)c(F)c1", "note": "[Example 17, (S)-N-((3-tert-butyl-1-(3-chlorophenyl)-1H-pyrazol-5-yl)methyl)-2-(3-fluoro-4-(methylsulphonamido)phenyl)propanamide]", "values": [{"measurement": "Ki", "result": 0.1, "unit": "nM"}]}
